S-[2-[(1-Iminoethyl)amino]ethyl]-2-methyl-L-cysteine salicylate monohydrate
Water absorbed in moisture balance measurement (80% RH): less than half of one percent
Hygroscopicity (moisture balance / DVS moisture sorption): non-hygroscopic

Source: patent US20050239754A1, “S-[2-[(1-Iminoethyl)amino]ethyl]-2-methyl-L-cysteine salicylate monohydrate crystalline salt” (priority 2003, published 2005)
